Laboratory results from patent US7951782B2, “Composition effective to prevent or treat adult disease” (Maruha Nichiro Seafoods, Inc, priority 2005, dated 2011).

The chains behind the UniProt entries cited, without tags or fusion partners.
UniProt P80457, whole entry: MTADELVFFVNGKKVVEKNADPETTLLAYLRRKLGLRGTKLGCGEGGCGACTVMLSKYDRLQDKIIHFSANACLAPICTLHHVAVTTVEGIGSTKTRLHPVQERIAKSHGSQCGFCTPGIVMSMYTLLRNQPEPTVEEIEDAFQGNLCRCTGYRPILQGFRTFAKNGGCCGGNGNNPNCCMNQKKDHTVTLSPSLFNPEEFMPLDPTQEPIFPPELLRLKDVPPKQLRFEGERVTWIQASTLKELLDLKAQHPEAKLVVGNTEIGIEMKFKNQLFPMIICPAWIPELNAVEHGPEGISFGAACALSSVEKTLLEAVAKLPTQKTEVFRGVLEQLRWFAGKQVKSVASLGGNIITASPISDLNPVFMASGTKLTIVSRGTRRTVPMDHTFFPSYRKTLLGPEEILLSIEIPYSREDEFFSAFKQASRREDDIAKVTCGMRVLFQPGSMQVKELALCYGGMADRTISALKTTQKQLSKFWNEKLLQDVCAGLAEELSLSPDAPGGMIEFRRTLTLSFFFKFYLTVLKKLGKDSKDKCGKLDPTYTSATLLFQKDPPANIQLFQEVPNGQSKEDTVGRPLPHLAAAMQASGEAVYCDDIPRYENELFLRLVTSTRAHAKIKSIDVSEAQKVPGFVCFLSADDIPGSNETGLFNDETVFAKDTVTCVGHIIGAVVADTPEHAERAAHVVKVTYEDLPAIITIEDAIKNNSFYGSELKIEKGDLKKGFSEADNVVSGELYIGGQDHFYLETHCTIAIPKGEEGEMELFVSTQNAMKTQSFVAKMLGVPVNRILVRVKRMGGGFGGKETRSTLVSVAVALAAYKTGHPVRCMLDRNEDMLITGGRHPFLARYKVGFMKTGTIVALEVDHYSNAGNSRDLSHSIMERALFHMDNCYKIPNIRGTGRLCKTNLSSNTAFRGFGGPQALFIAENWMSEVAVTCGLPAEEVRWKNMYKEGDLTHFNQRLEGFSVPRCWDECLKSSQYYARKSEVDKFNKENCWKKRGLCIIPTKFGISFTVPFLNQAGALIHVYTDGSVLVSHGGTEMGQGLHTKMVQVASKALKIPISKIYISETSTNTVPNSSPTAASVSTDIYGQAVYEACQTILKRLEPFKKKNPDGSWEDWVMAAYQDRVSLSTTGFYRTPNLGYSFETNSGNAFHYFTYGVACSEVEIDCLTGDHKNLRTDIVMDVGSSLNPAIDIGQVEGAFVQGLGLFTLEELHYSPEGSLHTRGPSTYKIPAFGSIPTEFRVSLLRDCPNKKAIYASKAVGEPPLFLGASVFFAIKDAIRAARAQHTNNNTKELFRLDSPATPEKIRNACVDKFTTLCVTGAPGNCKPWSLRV

Molecular target: T1, xanthine oxidase (XO) of cow's milk (Bos taurus, UniProt P80457)
T1 construct: xanthine oxidase (XO) of cow's milk (from Wako Pure Chemical); purchased Wako Pure Chemical; host or cells: cow's milk (natural source)
Test: Uric acid synthetase inhibitory activity of peptides that are part of SEQ ID No. 1
Type: biochemical
Conditions: 15 μM xanthine, 50 mM tris-HCl pH 7.4, 37° C., 10 minutes
Experimental: Each of the peptides synthesized was added to 1 ml of a 50 mM tris-HCl buffer (pH 7.4) containing 15 μM xanthine as an enzyme substrate to prepare a reaction system. To the reaction system was added 0.1 unit (containing 100 μl of 25 units/25 ml enzyme solution) of xanthine oxidase (XO) of cow's milk (from Wako Pure Chemical), followed by allowing the system to react at 37° C. for 10 minutes. The amount of uric acid produced from xanthine by the action of xanthine oxidase was evaluated in terms of changes in optical density (OD, at 292 nm), from which the enzyme activity was calculated from formula previously given.

Structure (SMILES) | xanthine oxidase activity in system containing the peptide
NC(=O)C[C@H](NC(=O)[C@@H](N)CC(=O)O)C(=O)N[C@@H](Cc1ccc(O)cc1)C(=O)O [DNY, Asp-Asn-Tyr] | inhibited
CC(C)C[C@H](N)C(=O)N[C@@H](CC(=O)O)C(=O)N[C@@H](CC(N)=O)C(=O)O [LDN, Leu-Asp-Asn] | inhibited
